Earlier results, collected in patent US9023356B2, “Treatment method using EGFR antibodies and SRC inhibitors and related formulations” (Ludwig Institute for Cancer Research Ltd, priority 2007, dated 2015).

Legend:
[1] = tested on: A431 and NR6M (express the de2-7 EGFR) xenografts; details: full text: Xenografts expressing the de2-7 EGFR were resistant; NR6M express the de2-7 EGFR in the absence of the wt EGFR; cited from earlier work
[2] = tested on: Renal cell carcinomas in vitro; details: full text: Only cells containing the VHL gene were sensitive; no in vivo data; cited from earlier work
[3] = tested on: Patients with colorectal cancer; details: full text: Response correlated with increase in EGFR copy number; small sample numbers; cited from earlier work
A431 xenografts = details: full text: Recurrent xenografts following complete regression were often resistant to further therapy; over-expression of VEGF common in resistant cell lines; cited from earlier work
[4] = tested on: A431 and multiple NSCLC in vitro; details: full text: No correlation with EGFR number; no in vivo data; cited from earlier work

Row | Compound | Observation [1] | Observation [2] | Observation [3] | Observation (A431 xenografts) | Observation [4]
1 | COc1cc2ncnc(Nc3ccc(F)c(Cl)c3)c2cc1OCCCN1CCOCC1 [ZD1839] | Xenografts expressing | – | – | – | –
2 | C225: monoclonal antibody directed to the EGFR | – | Only cells containing | Response correlated | Recurrent xenografts | No correlation with
